# Apparent affinities of Ab-14 variants for a coronavirus HR2 peptide

All variants were tested on one target, the spike HR2 peptide PDVDLGDISGINAS (SARS-CoV-2).

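Library AAYL49 holds single substitutions and randomly drawn double and triple substitutions in the CDRs. The assay is AlphaSeq: two haploid yeast populations carry antibody and antigen on their surface. After mating in shaken culture at 30 °C for 16 h, diploids were selected and their barcode pairs sequenced. Read counts were normalised to the haploid input and turned into Kd by a linear fit to BCL2-family pairs of known affinity, for each replicate. Each pool was mated in three replicate cultures.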

Ab-14 is the parent antibody, in scFv form: VH, then three GGGGS repeats, then VL. The light chain is unchanged in all variants.
VH: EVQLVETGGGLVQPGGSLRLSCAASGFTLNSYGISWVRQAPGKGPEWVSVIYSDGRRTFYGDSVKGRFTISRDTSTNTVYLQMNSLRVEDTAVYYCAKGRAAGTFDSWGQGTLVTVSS
VL: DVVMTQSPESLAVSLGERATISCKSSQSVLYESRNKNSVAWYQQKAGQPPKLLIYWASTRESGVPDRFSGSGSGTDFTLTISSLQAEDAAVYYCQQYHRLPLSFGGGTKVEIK

The parent's heavy chain CDRs are GFTLNSYGIS, VIYSDGRRTFYGDSVK, GRAAGTFDS; each variant's own CDRs replace them letter for letter.
Scale: log10 of Kd in nM, estimated from mating counts; low values are strong binders.
A mean of the replicates is given; it leaves out those without a signal.
A pair that was not seen in that replicate is written "nd"; this usually means weak binding, but a binder can also be missed.
Parent in this assay: reference entry 0.65, copy in this library 4.11 (one replicate of three).

| # | CDR-H1 | CDR-H2 | CDR-H3 | log10 Kd, replicates | mean log10 Kd (nM) | empty controls |
|---|---|---|---|---|---|---|
| 1 | GFTLNSYGIS | VIYSDGRRTFYGDFVK | GRAAGTNDH | nd / nd / nd | nd | 0/9 |
| 2 | GETLLSYGIS | VIYSYGRRTFYGDSVK | GRAAGTFDS | nd / nd / nd | nd | 1/9 (2.86) |
| 3 | GFTLNSYGIS | VIYSDGRRTFYGTSVK | GRAAGCFDS | 2.70 / 2.36 / 2.58 | 2.55 | 0/9 |
| 4 | GFTLNSYGIS | VIKIDGRRTFYGDSVK | GRAAGTFAS | nd / nd / nd | nd | 0/9 |
| 5 | GFTLFSYGIS | VIYSDGRRTTYGDSVK | GRAAGTFIS | nd / nd / 5.15 | 5.15 | 2/9 (3.62) |
| 6 | GFTLNSYGIS | VIYLDGRRTFYGDSVK | GRAAGTFDS | nd / 2.99 / 4.09 | 3.54 | 2/9 (3.62) |
| 7 | GFTLNSYGIS | IIYSDGRRTVYGDSVK | GRAAGTFDS | 2.19 / 2.19 / 1.61 | 2.00 | 1/9 (3.42) |
| 8 | GFTLKQYGIS | VIYSDGRITFYGDSVK | GRAAGTFDS | nd / 2.91 / nd | 2.91 | 3/9 (3.12) |
| 9 | GFTLNSYGRS | VIYSDGRRTFDGDSVK | GRAAGVFDS | nd / nd / nd | nd | 2/9 (3.74) |
| 10 | WPTLNSYGIS | VINSDGRRTFYGDSVK | GRAAGTFDS | nd / nd / nd | nd | 4/9 (4.41) |
| 11 | GQTLNSYGIS | VIYSDGRRTFYGDSVK | GRCAGIFDS | 3.72 / 5.52 / nd | 4.62 | 6/9 (3.88) |
| 12 | GFTLNSYGIS | VIYSDRRRTFYGDSVK | GRALGTFDQ | nd / nd / nd | nd | 0/9 |
| 13 | GFTLNCYGIS | VIYSDGRRTFYGDSVK | QRAALTFDS | nd / 2.91 / 6.00 | 4.46 | 4/9 (4.25) |
| 14 | GQTLNSGGIS | VIYSDGRRSFYGDSVK | GRAAGTFDS | nd / 4.02 / nd | 4.02 | 1/9 (3.91) |
| 15 | GFTLNSYGIS | VYYSDGRRTFYVDSVK | GRAAGTFDL | nd / nd / nd | nd | 0/9 |
| 16 | GFTLNSYGIS | VIYSEGRRTEYGDSVK | GRAAGTIDS | nd / nd / nd | nd | 1/9 (3.57) |
| 17 | GFTLNSYEIS | VIYSDGWRTFYGDSVK | GRAAGTFGS | nd / nd / nd | nd | 0/9 |
| 18 | GFTLNSYGIS | VIYSDGRRTFYGDHVK | VRAAGTFLS | nd / nd / nd | nd | 1/9 (2.32) |
| 19 | GFTANSDGIS | VIYSDGRRTFYVDSVK | GRAAGTFDS | nd / 4.04 / nd | 4.04 | 0/9 |
| 20 | GFTLNSYSIS | VIYSDGRRTHYGDSVK | QRAAGTFDS | nd / nd / 4.19 | 4.19 | 5/9 (3.95) |
| 21 | GFTLNSWGIS | VIYSDGRNTFYGDSVK | GRAAGTFDS | nd / 3.53 / nd | 3.53 | 0/9 |
| 22 | GFHLNSYGIS | VIYSDGRRTFYGDSVK | GRAAGQNDS | nd / nd / nd | nd | 1/9 (3.49) |
| 23 | GGTLNSYGIL | VIYSDGRRTFYGDSVK | GRAAFTFDS | nd / 3.61 / nd | 3.61 | 1/9 (3.80) |
| 24 | GFTLMSYGIS | VIYSDGRRTFYLDSVK | GRAAGTFDH | 3.72 / 2.58 / 1.49 | 2.60 | 0/9 |
| 25 | GFTLNSYGIY | VIYVDGRRTFYGDSVK | GRAAGTFDS | nd / nd / 5.38 | 5.38 | 3/9 (3.14) |
| 26 | GFTLNSGGIS | VIYSYGRRTFYGDSVK | ARAAGTFDS | nd / nd / 3.44 | 3.44 | 0/9 |
| 27 | GFTENSYGIS | VIYCDGRRTFYGDSLK | GRAAGTFDS | nd / nd / nd | nd | 0/9 |
| 28 | GFTLPSYGIS | VIASDGRRTFYGDSVK | GCAAGTFDS | 5.97 / nd / nd | 5.97 | 4/9 (4.00) |
| 29 | GFTLNDYGIS | VIYSDGRRTFYTDSVK | GRAAGIFDS | 1.29 / 0.87 / 0.91 | 1.02 | 3/9 (3.97) |
| 30 | GFTLNSTGCS | VIYSDGRRTFEGDSVK | GRAAGTFDS | 6.32 / nd / nd | 6.32 | 1/9 (5.14) |
| 31 | GFTLNSYGIS | VIYSDGRVTFYGDSVW | GRAAGTFDS | 4.61 / nd / nd | 4.61 | 3/9 (4.15) |
| 32 | GNTLNSYGIS | VIYSYGRRTFYGDSVK | GDAAGTFDS | 3.75 / nd / 3.56 | 3.65 | 0/9 |
| 33 | GFTLNSYGIS | VIYKDGRRTMYGDSGK | GRAAGTFDS | nd / nd / nd | nd | 0/9 |
| 34 | GFTLNSYGIP | VIYSDGRRTFYGDSSH | GRAAGTFDS | nd / nd / nd | nd | 0/9 |
| 35 | GFTRNSYGIS | VIWSDGRRTFYGDSVK | GRAAGTFQS | nd / 5.48 / 6.02 | 5.75 | 1/9 (3.04) |
| 36 | GFTLESYGIV | VIYSDGRRTFYGDSIK | GRAAGTFDS | nd / 4.37 / 3.19 | 3.78 | 3/9 (4.24) |
| 37 | GFTLNNYGSS | VIYSDGRRTFSGDSVK | GRAAGTFDS | nd / 4.87 / nd | 4.87 | 1/9 (3.24) |
| 38 | GFTLNSYIIS | FIYSDGRETFYGDSVK | GRAAGTFDS | nd / 2.97 / nd | 2.97 | 0/9 |
| 39 | GFTLNSYGIS | VIYSDGRRGFYGDSVK | GCAAGTFCS | 4.29 / nd / nd | 4.29 | 0/9 |
| 40 | GFTLNSYGIS | HIYSDGRRTFYGDSVK | LRAALTFDS | nd / 3.99 / nd | 3.99 | 0/9 |
| 41 | GFTFMSYGIS | VIYSLGRRTFYGDSVK | GRAAGTFDS | nd / nd / nd | nd | 0/9 |
| 42 | GFTLNSYGPS | VIYSDGRRTFYGLSVK | CRAAGTFDS | nd / nd / nd | nd | 0/9 |
| 43 | WFTLNSYGFS | VIYSDGRRTFYGDSVK | GRAAGTFDS | nd / nd / nd | nd | 1/9 (3.29) |
| 44 | GFTLNYYGIS | VIYSDGYRTFYGDSVK | GRGAGTFDS | 2.67 / 2.79 / 3.34 | 2.93 | 0/9 |
| 45 | GFTLNSYGIS | VCYSDLRRTFYGDSVK | GRAAGTFDY | nd / nd / nd | nd | 2/9 (4.53) |

Top 5 of the variants detected in all replicates, tightest first:

| CDR-H1 | CDR-H2 | CDR-H3 | log10 Kd, replicates | mean log10 Kd (nM) | empty controls |
|---|---|---|---|---|---|
| GFTLNDYGIS | VIYSDGRRTFYTDSVK | GRAAGIFDS | 1.29 / 0.87 / 0.91 | 1.02 | 3/9 (3.97) |
| GFTLNSYGIS | IIYSDGRRTVYGDSVK | GRAAGTFDS | 2.19 / 2.19 / 1.61 | 2.00 | 1/9 (3.42) |
| GFTLNSYGIS | VIYSDGRRTFYGTSVK | GRAAGCFDS | 2.70 / 2.36 / 2.58 | 2.55 | 0/9 |
| GFTLMSYGIS | VIYSDGRRTFYLDSVK | GRAAGTFDH | 3.72 / 2.58 / 1.49 | 2.60 | 0/9 |
| GFTLNYYGIS | VIYSDGYRTFYGDSVK | GRGAGTFDS | 2.67 / 2.79 / 3.34 | 2.93 | 0/9 |

Three control strains display no target. For library AAYL49, 15% of the pairings with them gave a signal, with a median of 4.06 and one signal in twenty below 2.83, so weak values seen in few replicates may be background. For each scFv, signals with the empty controls are counted beside the result, with their mean in brackets.

Reference: Engelhart et al. 2022, doi:10.1038/s41597-022-01779-4. File: FLAb, binding data.